# According to patent US5578725A, “Delta opioid receptor antagonists” (priority 1995, dated 1996):
# Amino acid sequences for entries named in this document (tags omitted). A change or cut given only in a name is not applied to a line headed by its entry.
# UniProt P33534: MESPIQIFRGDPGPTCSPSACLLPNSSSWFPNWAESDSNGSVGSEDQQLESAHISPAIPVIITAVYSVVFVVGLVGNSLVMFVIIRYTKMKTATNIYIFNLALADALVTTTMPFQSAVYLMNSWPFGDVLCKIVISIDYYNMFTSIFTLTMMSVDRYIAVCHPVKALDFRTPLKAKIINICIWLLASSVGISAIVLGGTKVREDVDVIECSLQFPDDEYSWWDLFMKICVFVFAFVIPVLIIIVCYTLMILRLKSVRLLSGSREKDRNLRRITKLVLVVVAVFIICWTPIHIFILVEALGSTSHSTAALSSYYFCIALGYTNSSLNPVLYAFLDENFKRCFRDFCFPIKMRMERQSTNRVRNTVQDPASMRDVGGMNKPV
# Target: κ (Mus musculus, UniProt P33534)
# Assay: Tail-flick assay, antagonism of U50,488H (κ) antinociception
# Assay type: in vivo, male Swiss-Webster mice
# Conditions: agonist, mice
smiles,measurement,value
CN(C(=O)Cc1ccc(Cl)c(Cl)c1)[C@@H]1CCCC[C@H]1N1CCCC1 (racemic),Peak antinociceptive activity time,20 min
